Sequences of proteins named here, by UniProt entry; tags and fusion partners are left off. Residues count along the entry.
UniProt P23415, 29-457 limits assumed: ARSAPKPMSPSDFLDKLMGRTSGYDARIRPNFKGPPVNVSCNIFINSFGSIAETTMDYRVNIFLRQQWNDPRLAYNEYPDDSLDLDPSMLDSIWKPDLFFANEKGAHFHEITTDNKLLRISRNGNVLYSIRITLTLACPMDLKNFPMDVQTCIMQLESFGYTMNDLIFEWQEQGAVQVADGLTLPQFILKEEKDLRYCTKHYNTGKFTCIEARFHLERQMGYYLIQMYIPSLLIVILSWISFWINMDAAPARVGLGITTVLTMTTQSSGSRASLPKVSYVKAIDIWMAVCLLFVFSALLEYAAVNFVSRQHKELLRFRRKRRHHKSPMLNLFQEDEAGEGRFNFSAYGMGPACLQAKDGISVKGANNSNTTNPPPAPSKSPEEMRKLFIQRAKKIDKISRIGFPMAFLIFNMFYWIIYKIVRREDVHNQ
UniProt P48167, 23-497 limits assumed: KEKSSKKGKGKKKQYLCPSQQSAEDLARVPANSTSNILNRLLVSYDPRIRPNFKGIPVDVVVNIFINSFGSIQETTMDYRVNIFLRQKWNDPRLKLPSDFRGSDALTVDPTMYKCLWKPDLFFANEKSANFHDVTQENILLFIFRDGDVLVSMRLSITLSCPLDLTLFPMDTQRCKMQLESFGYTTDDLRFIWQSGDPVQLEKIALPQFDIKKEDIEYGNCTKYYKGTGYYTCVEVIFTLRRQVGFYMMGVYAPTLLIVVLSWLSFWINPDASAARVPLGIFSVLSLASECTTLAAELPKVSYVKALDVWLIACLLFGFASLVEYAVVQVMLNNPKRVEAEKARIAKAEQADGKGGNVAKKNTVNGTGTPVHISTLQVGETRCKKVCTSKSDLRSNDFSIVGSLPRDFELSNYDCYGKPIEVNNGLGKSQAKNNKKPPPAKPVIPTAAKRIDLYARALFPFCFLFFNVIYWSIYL

According to BindingDB's records for 27966945:

Tests used:
[1] = target: Glycine receptor subunit alpha-1 (Homo sapiens, UniProt P23415); test: Antagonist activity at recombinant human glycine receptor alpha 1 expressed in human tsA201 cells assessed as inhibition of glycine-induced receptor activation after 30 mins by FLIPR membrane potential blue assay
[2] = target: Glycine receptor subunit alpha-1/beta (Homo sapiens, UniProt P23415+P48167); test: Antagonist activity at recombinant human glycine receptor alpha 1 beta expressed in human tsA201 cells assessed as inhibition of glycine-induced receptor activation after 30 mins by FLIPR membrane potential blue assay

Work on `O=C1/C(=N/O)[C@@H]2OCC=C3CN4CC[C@]56c7ccccc7N1[C@H]5[C@H]2[C@H]3C[C@H]46` yielded an IC50 [1] of 98 nM and an IC50 [2] of 214 nM.
